## Measured affinities in a library of Ab-14 light chain variants

All variants were tested on one target, the spike HR2 peptide PDVDLGDISGINAS (SARS-CoV-2).

Parent scFv Ab-14: VH joined to VL by three GGGGS repeats. Changes lie in the light chain CDRs alone.
VH: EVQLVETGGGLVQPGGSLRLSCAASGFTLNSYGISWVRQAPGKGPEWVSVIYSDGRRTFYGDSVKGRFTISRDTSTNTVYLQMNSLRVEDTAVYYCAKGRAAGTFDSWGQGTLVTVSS
VL: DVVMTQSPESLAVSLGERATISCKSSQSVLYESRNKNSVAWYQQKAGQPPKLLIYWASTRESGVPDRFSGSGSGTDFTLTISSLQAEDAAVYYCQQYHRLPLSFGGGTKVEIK

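Library AAYL50 holds single substitutions and randomly drawn double and triple substitutions in the CDRs. In AlphaSeq, yeast of one mating type display the scFv and yeast of the other type display the target. Mating (16 h, 30 °C) was followed by selection of diploids and sequencing of their barcodes. Scores were corrected for input abundance and mapped to Kd with protein pairs of known affinity run in the same pool. Mating was done three times.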

Each variant is given by its three light chain CDRs, as the data file delimits them; those of the parent are KSSQSVLYESRNKNSVA, WASTRES, QQYHRLPLS. Every variant below is changed at H98 of the VL (sequential numbering). Values are apparent Kd, the geometric mean of the replicates that gave a signal; lower means stronger binding. An entry "no signal" has no value in the source: the pair was not observed among the diploids in any replicate. This suggests poor binding but is not conclusive. Order: sorted from the lowest average up, undetected variants last. As a blank, each scFv also met three strains without target: over library AAYL50, 18% of these pairings were detected, typically at 15 µM and seldom below 970 nM. In this assay the parent's reference entry averaged 4.4 nM; its copy inside this library read 48 nM.

| CDR-L1 | CDR-L2 | CDR-L3 | apparent Kd | replicates with signal |
|---|---|---|---|---|
| KSSQSLQYESRNKNSVA | WASTRES | QQYTRLPLS | 3.4 nM | 3 of 3 |
| KSSQSVLYESRNKNSVA | WASTRES | QQVRRMPLS | 4.2 nM | 3 of 3 |
| KSSQSVLYESRNKNSVA | WASTRES | QQYERYPLS | 4.2 nM | 3 of 3 |
| KSSQSVLYESFNKNSVA | WGSTRES | QQYCRLPLS | 4.2 nM | 3 of 3 |
| KSSQSFLYESRNKNSVA | WASTRES | QQYYRLPLS | 5.0 nM | 3 of 3 |
| KSSQSVLYDSRNKNSVA | TASTRES | QQYDRLPLS | 5.8 nM | 3 of 3 |
| KSFQSVLYESRNKNSVA | WASTRES | QQYFRLPLS | 6.1 nM | 3 of 3 |
| KSSQSVLYESRNKNSVA | WASTRED | QQYFRLPLH | 6.2 nM | 3 of 3 |
| KSSQSILYESYNKNSVA | WASTRES | QQYYRLPLS | 8.1 nM | 3 of 3 |
| KSSQSVLYESRNKNSVA | WASTRES | QQYWRLPLS | 8.2 nM | 3 of 3 |
| KSSQSVLYYSRNKNSVA | WASTRES | QQYMRLPLS | 9.0 nM | 3 of 3 |
| KSSQPVLYESRNKFSVA | WASTRES | QQYFRLPLS | 9.8 nM | 3 of 3 |
| KSSQSVSYESRNKNSVA | WASTRES | QQYERLPLS | 11 nM | 3 of 3 |
| NSSQSVLYESRNKNSVA | WASTRES | QQYLRLPLS | 13 nM | 3 of 3 |
| KSSQSVNYESRNKNSVA | WASTRIS | QQYERLPLS | 15 nM | 3 of 3 |
| KSKQSVLYESRVKNSVA | WASTRES | QQYERLPLS | 35 nM | 1 of 3 |
| TSSQSVLYEYRNKNSVA | WASTRES | QQYERLPLS | 44 nM | 3 of 3 |
| KSSQSVLYISRNKNSVA | WASTRAS | QQYMRLPLS | 49 nM | 3 of 3 |
| KSSQSVLYESRNKNSVA | WASTRES | QQYFRLPLC | 60 nM | 3 of 3 |
| KSSQSVLYESRNKNSVA | WASTRES | QQYKILPLS | 83 nM | 2 of 3 |
| CSKQSVLYESRNKNSVA | WASTRES | QQYERLPLS | 84 nM | 2 of 3 |
| NSSQSVLYESRNKNCVA | WASTRES | QQYARLPLS | 84 nM | 3 of 3 |
| KSSQSVLYESRNKNSVA | WASRRES | QQYALLPLS | 90 nM | 3 of 3 |
| KSSKSVLYESRNKNSVA | WASTRES | QQYKRLPLS | 95 nM | 3 of 3 |
| KSWQSVLYESRNKNSVA | WASTRES | QQYERLPLS | 140 nM | 3 of 3 |
| KSSQSVLYESRNKNSVA | WASTRTS | QQYPRLHLS | 140 nM | 3 of 3 |
| KSSQSVLYEHRNKNSVA | WAHTRES | QQYCRLPLS | 140 nM | 3 of 3 |
| KSSQSVLYESRNKNEVA | WASVRES | QQYDRLPLS | 150 nM | 3 of 3 |
| KSSQSVLYESRNKNSVA | WASTRES | QQYYRLPLS | 180 nM | 3 of 3 |
| FSSQSVLYESRNKNSVA | WAYTRES | QQYGRLPLS | 200 nM | 1 of 3 |
| KSSQSVLYESRNKNSVA | WATKRES | QQYTRLPLS | 300 nM | 3 of 3 |
| KSSQSVLYESRNKNSVA | WASTRES | QGYQRLPLA | 460 nM | 1 of 3 |
| KSSQSVLYESRNKNSVA | WASTRES | QQWSRLPLY | 530 nM | 1 of 3 |
| KSSQSVLYESRNKNIVA | WASTRHS | QQYYRLPLS | 550 nM | 3 of 3 |
| KSSQSVLYESRNKPSVA | WASTRES | QQYQRQPLS | 890 nM | 1 of 3 |
| KSSQSVLYESWNKNSVA | WASTIES | QQYNRLPLS | 1.8 µM | 1 of 3 |
| KSSQSVLYESHNKNSVA | SASTRES | QQYFRLPLS | 2.8 µM | 1 of 3 |
| KSSQSVLYESRNKNSVA | WMHTRES | QQYKRLPLS | 2.8 µM | 1 of 3 |
| KSSQSVLDESENKNSVA | WASTRES | QQYDRLPLS | 3.2 µM | 2 of 3 |
| RSSQSVLYESRNKNSVA | WASTRES | QQYLRLPLS | 4.0 µM | 1 of 3 |
| KSSQSVLYESRNKNSVA | IASTRES | QQYVSLPLS | 5.0 µM | 1 of 3 |
| KSSQSVLYESRNKNSVA | WASTRES | QQYNALPKS | 13 µM | 2 of 3 |
| KSSQSVHYESRNKNSVA | WASTRES | QQYRRLPLI | 17 µM | 1 of 3 |
| KSSQSVLYESRNKYLVA | WASTRES | QQYARLPLS | 18 µM | 2 of 3 |
| KSSQSVLYESRNKNSVA | WPSTRES | QQYYRLPLS | 21 µM | 1 of 3 |
| KSSQSVLYESRNKNSVA | WYSTRES | QHYFRLPLS | 22 µM | 2 of 3 |
| KSSQSVLYESRNKNSVT | WASTRES | QQYWRLPLS | 24 µM | 3 of 3 |
| KSSQSVLYESRNKNSVA | WCSTREG | QQYSRLPLS | 25 µM | 3 of 3 |
| KSSQSVLYESRNKNSVA | WASTRES | QQYCRLNLP | 38 µM | 2 of 3 |
| KSSQSVLYESKNKNSVA | WASTRES | QQYPHLPLS | 40 µM | 1 of 3 |
| CSSQSVLYESRNKNSVA | WASTRES | QQYYRDPLS | 67 µM | 2 of 3 |
| KSSQSVLYECRNKNSVA | WFSTRES | QQYWRLPLS | 78 µM | 2 of 3 |
| PSSQSVLYESRNKNSVA | WASTRES | QQYLRLILS | 300 µM | 1 of 3 |
| KSSQSVLYESRNKNSVP | WASTRES | QMYWRLPLS | 310 µM | 1 of 3 |
| KSSQSVLYESRNKNSVA | KASTRES | QQFCRLPLS | no signal | 0 of 3 |
| KSSQSVLYESNNKNSVA | WASTRES | PQYIRLPLS | no signal | 0 of 3 |
| KSSQSVILESRNKNSVA | WASTRES | QQYCRLPLS | no signal | 0 of 3 |
| KSSQSVLYESRNKNSVA | WASTRES | QQYPRLPTN | no signal | 0 of 3 |
| KSSQSVLYESRNKNSVA | WASTRQS | QQYTRLPLS | no signal | 0 of 3 |
| KSSQSDLYESRNKNSVA | WASTRES | QQYMKLPLS | no signal | 0 of 3 |
| KSSNSVLYESRNKNSVA | WASTRES | QCYPRLPLS | no signal | 0 of 3 |
| KSSQSVLYESRNKWSVA | WASTRES | QQYARLRLS | no signal | 0 of 3 |
| KSSQSVLYESRNKNSVW | WASTMES | QQYSRLPLS | no signal | 0 of 3 |
| KSSQSVWYESRNKNSVA | WASKRES | QQYLRLPLS | no signal | 0 of 3 |
| KSSQYVLYVSRNKNSVA | WASTRES | QQYNRLPLS | no signal | 0 of 3 |
| KSSQSVLYESRNKPSVA | WYSTRES | QQYMRLPLS | no signal | 0 of 3 |
| KSSQEVSYESRNKNSVA | WASTRES | QQYQRLPLS | no signal | 0 of 3 |
| KSSQSVLYHSRNKNSVA | WASTRES | KQYFRLPLS | no signal | 0 of 3 |
| SSSQSVLYESRNKESVA | WASTRES | QQYPRLPLS | no signal | 0 of 3 |
| KSSQSVLYENRNKNSVA | WASTRES | QTYIRLPLS | no signal | 0 of 3 |
| KSSQSVLYELRNKNSVA | WASTRES | DQYGRLPLS | no signal | 0 of 3 |
| KSSQSVLYESRNKNSVA | KASTRES | TQYARLPLS | no signal | 0 of 3 |
| KSSQSVLYESRNKNSVA | WASTRES | YQYYRLYLS | no signal | 0 of 3 |
| KSSQSVLGESRNKNSVA | WASTRES | QQYLRLQLS | no signal | 0 of 3 |
| KSSQSVLYESRNKNSVA | WLSTRES | QQYMDLPLS | no signal | 0 of 3 |
| KSSQSVLYESRNKNSVG | WASTRES | QQYMRLPLG | no signal | 0 of 3 |

The first 9 entries again:

| CDR-L1 | CDR-L2 | CDR-L3 | apparent Kd | replicates with signal |
|---|---|---|---|---|
| KSSQSLQYESRNKNSVA | WASTRES | QQYTRLPLS | 3.4 nM | 3 of 3 |
| KSSQSVLYESRNKNSVA | WASTRES | QQVRRMPLS | 4.2 nM | 3 of 3 |
| KSSQSVLYESRNKNSVA | WASTRES | QQYERYPLS | 4.2 nM | 3 of 3 |
| KSSQSVLYESFNKNSVA | WGSTRES | QQYCRLPLS | 4.2 nM | 3 of 3 |
| KSSQSFLYESRNKNSVA | WASTRES | QQYYRLPLS | 5.0 nM | 3 of 3 |
| KSSQSVLYDSRNKNSVA | TASTRES | QQYDRLPLS | 5.8 nM | 3 of 3 |
| KSFQSVLYESRNKNSVA | WASTRES | QQYFRLPLS | 6.1 nM | 3 of 3 |
| KSSQSVLYESRNKNSVA | WASTRED | QQYFRLPLH | 6.2 nM | 3 of 3 |
| KSSQSILYESYNKNSVA | WASTRES | QQYYRLPLS | 8.1 nM | 3 of 3 |

Values reported by Engelhart et al. 2022, doi:10.1038/s41597-022-01779-4 (FLAb copy).